The source of these data is PubChem BioAssay (EPA / NIEHS).

Protein sequences, listed by entry. Tags and fused reporters are not part of them. Lines headed by an entry give the natural chain unless they say otherwise; changes in a name come on top.
UniProt P35869: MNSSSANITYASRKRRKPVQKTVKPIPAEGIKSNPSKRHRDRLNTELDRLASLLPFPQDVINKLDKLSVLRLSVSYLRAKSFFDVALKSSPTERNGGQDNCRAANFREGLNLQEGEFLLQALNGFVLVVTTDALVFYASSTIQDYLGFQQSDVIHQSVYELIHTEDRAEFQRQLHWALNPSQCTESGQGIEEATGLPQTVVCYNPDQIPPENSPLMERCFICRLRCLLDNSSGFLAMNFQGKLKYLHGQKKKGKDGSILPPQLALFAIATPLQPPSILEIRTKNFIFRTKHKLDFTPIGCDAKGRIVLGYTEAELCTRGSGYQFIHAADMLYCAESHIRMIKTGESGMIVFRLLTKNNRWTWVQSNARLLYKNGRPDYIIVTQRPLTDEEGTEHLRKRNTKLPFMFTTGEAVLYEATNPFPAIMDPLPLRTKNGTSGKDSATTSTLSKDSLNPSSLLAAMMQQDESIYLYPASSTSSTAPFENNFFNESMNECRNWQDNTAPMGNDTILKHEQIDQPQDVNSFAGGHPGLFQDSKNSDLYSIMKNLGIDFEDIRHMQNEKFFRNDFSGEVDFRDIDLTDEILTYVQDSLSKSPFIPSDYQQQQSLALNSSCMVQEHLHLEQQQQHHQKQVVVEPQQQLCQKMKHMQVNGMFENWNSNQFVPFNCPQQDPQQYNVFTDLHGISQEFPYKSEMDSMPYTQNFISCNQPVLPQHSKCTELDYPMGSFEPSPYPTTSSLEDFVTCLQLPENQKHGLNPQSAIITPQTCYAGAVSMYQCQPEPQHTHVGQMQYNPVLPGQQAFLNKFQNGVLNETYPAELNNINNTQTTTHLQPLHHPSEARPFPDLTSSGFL

Only a part is listed here, and it is no random draw. Calls of active or inactive are those of the source. How the source made its calls: active means hit-call score of the fitted dose curve at least 0.9, where 1 is the maximum; inactive means score below 0.9.

The assay addresses Aryl hydrocarbon receptor (Homo sapiens) (UniProt P35869). The experiment in a line: ATG_Ahr_CIS: Attagene CIS-FACTORIAL HepG2 Assay for human Aryl Hydrocarbon Receptor (Ahr) (AID 2282930). The settings on record: HepG2 AhR cis-factorial reporter transcription; actives raise or lower the signal. As to the method:
ATG_CIS is a cell-based, multiplexed-readout assay that uses HepG2, a human liver cell line, with measurements taken at 24 hours after chemical dosing in a 24-well plate.ATG_Ahr_CIS is one of 52 assay component(s) measured or calculated from the ATG_CIS assay. It is designed to make measurements of mRNA induction, a form of inducible reporter, as detected with fluorescence intensity signals by Reverse transcription polymerase chain reaction (RT-PCR) and Capillary electrophoresis technology.Data from the assay component ATG_Ahr_CIS was analyzed into 1 assay endpoint. This assay endpoint, ATG_Ahr_CIS, was analyzed with bidirectional fitting relative to DMSO as the negative control and baseline of activity. Using a type of inducible reporter, measures of mRNA for gain or loss-of-signal activity can be used to understand the reporter gene at the transcription factor-level as they relate to the gene AHR. Furthermore, this assay endpoint can be referred to as a primary readout, because this assay has produced multiple assay endpoints where this one serves a reporter gene function. To generalize the intended target to other relatable targets, this assay endpoint is annotated to the dna binding intended target family, where the subfamily is basic helix-loop-helix protein.
Human liver HepG2 cells are transiently transfected with multiple reporter transcription units (MRTUs) in 6-well plates using FuGene 6 reagent (Roche; 3 ml FuGene/1 mg DNA). The MRTU constructs are regulated by a cis-regulating element (promoter). […] A major difference between the CIS and TRANS system is that in CIS activities of endogenous TFs are measured, whereas the TRANS assay evaluates changes in activities of exogenous, chimeric NR-Gal4 proteins. […] At the end of 24 hour incubation, total RNA was isolated using TriZol reagent (Invitrogen). The isolated RNA is then reverse-transcribed using oligo(dT) primer and Mo-MLV reverse transcriptase (Invitrogen) with DNAse I (Ambion) treatment for 30 min. The one-tenth of the produced cDNA was amplified by PCR using Taq DNA polymerase (Invitrogen) and two reporter sequence-specific primers. The PCR products were fluorescently labeled by primer extension with 6-arboxyfluorescein (6-FAM) 5'-labeled reporter sequence-specific primer (2 min at 95 C, 20 s at 68 C and 10 min at 72 C) and these products were digested with 5U of HpaI (New England Biolabs) for 2h at 37 C. […] The raw capillary electrophoresis data was processed using Attagraph software (Attagene).
For the compound `O=C1C2CC=CCC2C(=O)N1SC(Cl)(Cl)C(Cl)Cl` (stereo unspecified), the result was inactive.

Consider `CC(C)OP(=S)(OC(C)C)SCCNS(=O)(=O)c1ccccc1`, for which the compound was classed as inactive.

On to `CC(C)CCCCCCCOP(OCCCCCCCC(C)C)Oc1ccccc1`, for which the outcome was inactive.

In the case of `O=[p+]1oc2ccccc2c2ccccc21` (stereo unspecified), the outcome was inactive.

Regarding `CCCCO[P+](=O)OCCCC`, the call was inactive.

As to `CCCCC(CC)CO[P+](=O)OCC(CC)CCCC` (stereo unspecified), the compound was called inactive.

Consider `O=C(Cl)OCCOC(=O)Cl`, for which the call was inactive.

As for `O=[N+]([O-])c1ccc([N+](=O)[O-])cc1`, the AC50 was active: 35900 nM.

Regarding `N#CSc1ccc([N+](=O)[O-])cc1[N+](=O)[O-]`, the AC50 is active: 2070 nM.

As to `CN(C(=O)Cc1cccc2occc12)[C@H]1CC[C@@]2(CCCO2)C[C@@H]1N1CCCC1`, the compound was classed as inactive.

For `O=C(Cl)Oc1ccccc1`, the compound was called inactive.

Take `O=[P+](Oc1ccccc1)Oc1ccccc1`: the AC50 is active: 99.5 nM.

Regarding `O=P(Cl)(Oc1ccccc1)Oc1ccccc1`, the call was inactive.

As to `CCCCOP(OCCCC)OCCCC`, the call was inactive.

Regarding `O=[As]c1ccccc1` (stereo unspecified), the AC50 is active: 230 nM.

Consider `Cc1cc([N+](=O)[O-])cc([N+](=O)[O-])c1O`, for which the AC50 is active: 122000 nM.
